Experimental data from patent US8101180B2, “Anti-IGF-IR and/or anti-insulin/IGF-I hybrid receptors antibodies and uses thereof” (Pierre Fabre Medicament, priority 2002, dated 2012).

Columns and labels:
A549 cells = assay: ADCC with human NK cells on A549 cells (51Cr); type: cell-based; settings: 4 hours, 10 μg antibody per 5·10^5 cells
Protocol: (§1) It is, however, probable that during its administration in man, the antibody 7H2HM, of isotype IgG1, is capable of inducing cell lysis by a mechanism of ADCC type (Antibody Dependent Cellular Cytotoxicity). In order to verify this point, NK (Natural Killer) cells coming from the peripheral blood of human donors are placed in the presence of A549 or MCF-7 cells previously incubated for 4 hours with 10 μg of 7H2HM antibody per 5·10^5 cells and labeled with ^51Cr ([…]). In this experiment, herceptin (written h4D5 on FIGS. 32A and 32B) is used as an experiment positive control.

MCF-7 cells = assay: ADCC with human NK cells on MCF-7 cells (51Cr); type: cell-based; settings: 4 hours, 10 μg antibody per 5·10^5 cells
Protocol: as §1

Q: Which results are given for “herceptin: anti-HER2/neu antibody used as positive control for ADCC [reference compound]”?
A: ADCC on A549 cells (A549 cells): significant ADCC; ADCC on MCF-7 cells (MCF-7 cells): significant ADCC
